From article PMC7483518, “Destabilizing single chain major histocompatibility complex class I protein for repurposed enterokinase proteolysis” (Scientific Reports, 2020)
Where two headings read alike, the source gives them in different places.

How the values were obtained:
[1] = test system: HLA-A*11:01 single chain protein; assay type: biochemical, Human; design: unit not given beside the values;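 for EZ50kD (pH 6.2): scaled with positive control peptide as 1 and negative control peptide as 0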
[2] = biological target: photolabile unchained HLA-A*11:01 pMHC-I protein (Homo sapiens, UniProt P04439, A114D/D185E/E176A/F33Y/L180Q/S129P/T187R); assay: ELISA with photolabile unchained pMHC-I protein and UV irradiation; assay type: binding; settings: Table 2; 62.5 nM photolabile pMHC-I mixture, 5 μM peptide in PBS, UV 365 nm 2 × 5 min on ice, 2 h room temperature on anti-β2m plate; Abs450nm − Abs570nm; instability cutoff < 0.6

Sequence: RVIDPRRCLK [reference compound]
- EZ50kD (pH 6.2) ([1]; pH 6.2): 1.075
- EZ50kD (pH 8) ([1]; pH 8): 0.7339

Sequence: GTSGSPIIDK [reference compound]
- ELISA450nm [2]: 1.385
- EZ50kD (pH 6.2) ([1]; Table 2, pH 6.2, 37 °C, enterokinase, Eq. (4), instability cutoff < 0.3): 0.6334
